From patent publication EP4682168A1, “ANTI-LIV-1 ANTIBODY AND ANTI-LIV-1 ANTIBODY-DRUG CONJUGATE, AND PHARMACEUTICAL USE THEREOF” (priority 2023, dated 2024)

Tests used:
[1] = tested on: Calu-6 lung cancer cell line; test: Calu-6 lung cancer xenograft efficacy study; format: in vivo, CD1 athymic nude mice; conditions: for TGI: day 25 after administration
Method: (§1) Tumor cells grown in the implantation culture of CD1 athymic nude mice: Calu-6 (2.5 × 10^6 cells in 50% matrigel) from ATCC, PC-3 (2.5 × 10^6 cells) from ATCC, and PA-1 (5 × 10^6 cells in 50% matrigel) from ATCC. Tumor cells grown in the implantation culture of NSG mice: HCC1806 (2.5 × 10^6 cells in 50% matrigel) from ATCC and MCF-7 (10 × 10^6 cells; for the in vivo growth of MCF-7, 8.5 µg/mL estradiol was added to the drinking water of female mice) from NCI.
(§2) When the tumors grew to 150 mm^3, the humanized LIV-1 ADC or the non-binding control ADC (1 mg/kg, 3 mg/kg, 6 mg/kg, or 10 mg/kg) was administered by intravenous injection once every four days for a total of four administrations (q4d × 4), by intravenous injection once every week for a total of 2 administrations (qw × 2), or by single intravenous injection. The tumor volume was monitored using a caliper, and the animals were euthanized when the tumor volume reached about 2000 mm^3. Tumor volume plots were continued for each group until one or more animals were euthanized. All animal procedures were conducted in a facility approved by the Association for Assessment and Accreditation of Laboratory Animal Care in accordance with protocols approved by the Institutional Animal Care and Use Committee. TGI was calculated as follows: TGI (%) = 1−[(Td−T0)/(Cd−C0)] × 100% [formula]
where Td and Cd are the average tumor volumes of the treatment and control groups on the day of tumor volume measurement, and T0 and C0 are the average tumor volumes of the treatment and control groups on day 0.

[2] = tested on: PC3 mouse subcutaneous tumors; test: PC3 prostate cancer xenograft efficacy study; format: in vivo, CD1 athymic nude mice
Method: as §1
as §2, with “[formula] […]” for “[formula]”

[3] = tested on: PA-1 mouse subcutaneous tumors; test: PA-1 ovarian cancer xenograft efficacy study; format: in vivo, CD1 athymic nude mice; conditions: Single dose of 3 mg/kg, intravenous injection
Method: as §1
as §2, with “[formula] […]” for “[formula]”

[4] = tested on: MCF7 breast cancer cell line; test: MCF7 breast cancer xenograft efficacy study; format: in vivo; conditions: MCF7 in NSG mice, dose only in FIG. 7
Method: as §1
as §2, with “[formula] […]” for “[formula]”

[5] = tested on: MCF7-Liv1 #17; test: In vitro inhibition of cell proliferation (CellTiterGlo2), MCF7-Liv1 #17; format: cell-based, human; conditions: MCF7-Liv1 #17 cells
Excerpt: (§3) In this experiment, a CellTiterGlo2 (Promega) reagent was used to evaluate the antiproliferative effect of the drug. The thermotolerant luciferase contained in this reagent can catalyze the mono-oxidation of fluorescein in the presence of Mg2+, ATP produced by living cells, and molecular oxygen, producing a stable "glow-type" luminescent signal, thereby determining the number of living cells in the culture by quantifying ATP, a marker for metabolically active cells.
(§4) The cell lines selected in this experiment were as follows: a human lung cancer cell (undifferentiated) line Calu6, and human breast cancer cell lines overexpressing LIV-1, i.e., MCF7-ATCC-LIV-1#7, #12, and #17.
(§5) In an incubator at 37 °C with 5% CO2, Calu6 cells were incubated in an RPMI-1640 medium containing 10% fetal bovine serum, and MCF7-ATCC-LIV-1 overexpressing cell lines were incubated in an EMEM medium containing 10% fetal bovine serum and 1 µg/mL. The four types of cells were seeded at 50 µL/well into 96-well plates at a density of 2 × 10^3 to 5 × 10^3 cells/well. After 24 h of incubation, different concentrations of antibody A-MMAE conjugates or control antibody-MMAE conjugates (IgG1-BrAc-MMAE) diluted with a culture medium were added at 100 µL/well. […] The glow values were determined, and the IC50 values (nM) of the anti-LIV-1 antibody A-BrAcMMAE conjugate for various cells were calculated (Table 3). […]

[6] = tested on: HCC1806 breast cancer cell line; test: HCC1806 breast cancer xenograft efficacy study; format: in vivo; conditions: HCC1806 in NSG mice; day 21 after administration; dose only in FIG. 8
Method: as §1
as §2, with “[formula] […]” for “[formula]”

[7] = tested on: Calu6; test: In vitro inhibition of cell proliferation (CellTiterGlo2), Calu6; format: cell-based, human; conditions: Calu6 cells; Table 4-3
Excerpt: as §3, §4, §5

B1: A-BrAcMMAE (conjugate)
heavy: EVQLVQSGAEVKKPGATVKISCKASGLNIEDYYMHWVQQAPGKGLEWMGWIDPENGDTEYAEKFQGRVTITADTSTNTAYMELSSLRSEDTAVYYCTVHNAHYGTWFAYWGQGTTVTVSSASTKGPSVFPLAPSSKSTSGGTAALGCLVKDYFPEPVTVSWNSGALTSGVHTFPAVLQSSGLYSLSSVVTVPSSSLGTQTYICNVNHKPSNTKVDKKV[sequence of human IgG1 Fc not given]
light: DIVMTQTPLSLSVTPGQPASISCRSSQTLVRSDGNTYLEWYLQKPGQSPQLLIYRVSNRFSGVPDRFSGSGSGTDFTLKISRVEAEDVGVYYCFQGSHVPYTFGGGTKLEIKRTVAAPSVFIFPPSDEQLKSGTASVVCLLNNFYPREAKVQWKVDNALQSGNSQESVTEQDSKDSTYSLSSTLTLSKADYEKHKVYACEVTHQGLSSPVTKSFNRGEC
modifications: non-natural residues
[1]; multiple-dose administration, 3 mg/kg group
  TGI: 75.14%
[1]; multiple-dose administration, 6 mg/kg group
  TGI: 111.56%
[1]; multiple-dose administration, 6 mg/kg group, day 28 after administration
  mice whose tumors completely regressed: 7 mice
[1]; single-dose administration, 6 mg/kg group
  TGI: 52.72%
[1]; single-dose administration, 10 mg/kg group
  TGI: 76.96%
[2]; PC3 mouse subcutaneous tumors, Single dose of 10 mg/kg, intravenous injection
  Tumor growth inhibition rate TGI% (day 24 after administration): 116.19%
[2]; PC-3 in nude mice, day 11 after administration, dose only in FIG. 9
  TGI: 101.5%
[3]
  Tumor growth inhibition rate TGI% (day 13 after administration): 93.77%
[4]; day 22 after administration
  mice whose tumors completely regressed: 4 mice
[4]; day 36 after administration
  TGI: 126.3%
[5]; Table 4-2, Experiment 2
  IC50: 0.025 nM
[5]; Table 4-2, Experiment 3
  IC50: 0.0041 nM
[6]
  TGI: 102.99%
[7]
  IC50: 2.21 nM
